Hits are enriched below; roughly 2.2% of the tested compounds scored in any of these assays.
miR-21 reporter – miR-21 reporter, rising signal; HeLa miR-21 FLuc reporter, luciferase, 48 h; Potency, µM (highest dose often 38.3 µM); 340,000 tested, under 10 active; AID 2288; active = well fitted rising curve with a large enough effect; inconclusive = small, poorly fitted or top-dose-only effect; inactive = no such curve, though single readings can be large or run the other way;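 further: miR-21 action dims this reporter so a rising signal means less miR-21 action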
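HeLa cells stably expressing CMV-driven firefly luciferase with a downstream miR-21 binding sequence, endogenously expressing miR-21, were treated with titrations (up to about 40uM final) for 48 hours at 37 degree Celsius. Luciferase luminescence was read after lysis.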
Nrf2 activator – Nrf2 pathway activation. Potency, µM (series often up to 46.1 µM), hits mostly activators. hit rate 0.31% among 410,000. AREc32 ARE-luciferase reporter (MCF7-derived line), luminescence, 24 h; also: nearly all actives have a fitted effect of over 65% in size
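Reporter line AREc32 (ARE-Fluc), seeded overnight in OPTI-MEM with 5% FBS; compound pin-transferred, 24 hr at 37 deg C, 5% CO2; luminescent read-out.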
Nrf2 inh – blocks Nrf2 signaling. A549 ARE-Fluc reporter, luciferase luminescence, 18-24 h. Potency, µM (series often up to 46 µM), actives largely listed as inhibitors. hit rate 2.1% among 360,000. AID 504444; also: nearly all actives have a fitted effect of over 60% in size
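A549 ARE_Fluc cells, 5000/well, 5% FBS OPTI-MEM; compounds in dose-response, 18-24 h at 37 °C/5% CO2; CellTiter-Fluor viability read (Ex 405/Em 525), then BugLite luciferase luminescence = Nrf2 activity.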
A549 tox – A549 cytotoxicity, counter-screen for Nrf2 inhibitors; Potency, µM (top dose mostly 46 µM), hits mostly inhibitors; AID 504648; A549 ARE-Fluc cells, CellTiter-Fluor viability, 18-24 h; hit rate 0.16% among 390,000
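Cytotoxicity counterscreen: CellTiter-Fluor fluorescence was measured in A549 ARE_Fluc cells after 18-24 h of compound exposure in a concentration series. The subsequent BugLite luminescent read reports ARE-luciferase activity.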
B2AR arrestin – beta2AR (human) beta-arrestin recruitment activity. P07550. beta-arrestin recruitment to beta2AR, cell-based reporter. Potency, µM (highest dose often 46.1 µM), hits mostly activators. hit rate 0.02% among 330,000. AID 492947; also: nearly all actives have a fitted effect of over 65% in size
Large screens that a line does not name were inactive. Unless noted, calls follow the shape of the dose curve; as a rule, active = well fitted curve in the direction sought with a large enough effect; inconclusive = small, poorly fitted or top-dose-only effect, or another doubt; inactive = no such curve, though single readings can be large; an effect the other way counts as inactive or inconclusive.

Cc1ccc(S(=O)(=O)/C(=C/Cl)NC(=O)c2ccccc2)cc1	Nrf2 activator inconclusive, Nrf2 inh 18µM
Cc1ccc(S(=O)(=O)C(NC(=O)c2ccccc2)=C(Cl)Cl)cc1	Nrf2 activator inconclusive, A549 tox inconclusive (no result: miR-21 reporter, B2AR arrestin)
Cn1c(=O)c2c(-c3ccccc3)n3c(c2n(C)c1=O)C(c1cccc([N+](=O)[O-])c1)Nc1ccccc1-3 (stereo unspecified)	none (no result: B2AR arrestin)
CCOc1ccc(CN(C)C(=O)CNC(=O)c2ccccc2)cc1	none
C=CCOc1ccc(CN(C)C(=O)CNC(=O)c2ccc(-c3ccccc3)cc2)cc1	Nrf2 inh 16µM
Cc1cccc(NC(c2cccc(Cl)c2)c2ccc3cccnc3c2O)n1 (stereo unspecified)	Nrf2 inh inconclusive (no result: B2AR arrestin)
C=C1[C@@H](O)[C@@H]2O[C@]3(CC[C@H](/C=C/[C@@H](C)[C@@H]4CC(C)=CC5(O[C@H](C[C@@](C)(O)C(=O)OC)CC[C@H]5O)O4)O3)CC[C@H]2O[C@@H]1[C@@H](O)C[C@H](C)[C@H]1OC2(CCCCO2)CC[C@H]1C (stereo partly specified)	Nrf2 inh 0.092µM, A549 tox inconclusive (no result: miR-21 reporter)
Brc1cccc(-c2nnc(-c3ccccc3)o2)c1	Nrf2 activator 3.2µM, Nrf2 inh inconclusive
c1ccc(-c2nnc(-c3ccccc3)o2)cc1	Nrf2 activator 4.5µM (no result: Nrf2 inh)
Cc1cc(C)cc(N(CC(=O)NC2CCCCC2)C(=O)CCCC(=O)Nc2ccccn2)c1	Nrf2 inh 21µM, A549 tox inconclusive
C[n+]1ccc(/C=C/c2ccc(Br)cc2)cc1	Nrf2 inh 7.3µM, A549 tox inconclusive
Cc1ccc2[nH]c(C)c(/C=C/c3cc[n+](C)cc3)c2c1	Nrf2 inh inconclusive
CC(C)(C)n1nnnc1C(c1cccs1)N(Cc1ccccc1)Cc1ccco1 (stereo unspecified)	Nrf2 inh 21µM
COCCn1c(N)c(C(=O)NCc2cccs2)c2nc3ccccc3nc21	Nrf2 inh 23µM
COc1ccccc1CNC(=O)c1c(N)n(CCCN2CCOCC2)c2nc3ccccc3nc12	Nrf2 inh 18µM, A549 tox inconclusive
N#Cc1c(N)n(CCNC(=O)c2ccc(Cl)cc2)c2nc3ccccc3nc12	Nrf2 inh 9.2µM
Nc1c(C(=O)NCc2ccc3c(c2)OCO3)c2nc3ccccc3nc2n1CCCN1CCOCC1	none
Cc1ccc(C(=O)NCCn2c(N)c(C#N)c3nc4ccccc4nc32)cc1	none
COCCn1c(N)c(C(=O)NCC2CCCO2)c2nc3ccccc3nc21 (stereo unspecified)	Nrf2 inh inconclusive, A549 tox inconclusive
Nc1c(C(=O)NCCN2CCOCC2)c2nc3ccccc3nc2n1CCc1ccccc1	Nrf2 inh 15µM
CCOc1cccc(C2C=C(c3ccc4c(c3)OCO4)NC(c3ccc(Br)cc3)N2)c1O (stereo unspecified)	none (no result: miR-21 reporter, Nrf2 activator, B2AR arrestin)
CCOc1cc(C#N)c(NC(=O)Cn2nnc(-c3ccc(C)cc3)n2)cc1OCC	none (no result: B2AR arrestin)
O=C(COc1ccc(Br)cc1)Nc1ccc(CN2CCOCC2)cc1	Nrf2 inh 23µM
O=C(/C=C/c1ccccc1)Nc1ccc(CN2CCOCC2)cc1	none
O=C(COc1ccccc1Cl)Nc1ccc(CN2CCOCC2)cc1	Nrf2 inh 23µM
O=C(CCCOc1ccc(Br)cc1)Nc1ccc(S(=O)(=O)N2CCOCC2)cc1	Nrf2 inh 15µM (no result: miR-21 reporter)
O=C(/C=C/c1ccc(Cl)cc1Cl)Nc1ccc(CN2CCOCC2)cc1	Nrf2 inh 7.3µM
O=C(CN1C(=O)C2(SCC(=O)N2c2ccccc2)c2ccccc21)Nc1ccccc1C(F)(F)F (stereo unspecified)	none (no result: B2AR arrestin)
Cc1oc2ccc(O)c(CN(C)Cc3ccccc3)c2c1C(=O)Nc1cccc(Cl)c1C	none (no result: B2AR arrestin)
O=C1CCCC2=C1C1(CCCC1)N=C(Nc1nc3cc(Cl)ccc3o1)N2	Nrf2 inh inconclusive (no result: miR-21 reporter, Nrf2 activator, B2AR arrestin)
CC(C)COc1ccc(C(=O)Nc2onc3c2CCCC3)cc1	miR-21 reporter inconclusive, Nrf2 inh inconclusive (no result: B2AR arrestin)
CCOC(=O)c1ccc(NC(=O)CCc2nc(-c3ccc(C)cc3)no2)cc1	Nrf2 inh 15µM
COc1ccc(-c2noc(CCCC(=O)O)n2)cc1	Nrf2 inh 1.8µM
CCOC(=O)c1ccc(NC(=O)CCc2nc(-c3ccc(Cl)cc3)no2)cc1	Nrf2 inh inconclusive
COc1ccc(-c2noc(CCC(=O)O)n2)cc1	none
